Here are results for one molecule from article PMC4589779 (Scientific Reports, 2015).

The assay has as its system bile salt export protein (BSEP) mRNA. The note with it: HepG2 cells, 25 μM and 50 μM in competition with CDCA (50 μM), 6 h. As for the experimental part:
Quantification of the expression of FXR target genes in non-transfected cells offers the least artificial way to characterize the activity of a FXR ligand in vitro. […] As investigated genes we selected the direct FXR target genes bile salt export protein (BSEP) and small hetero-dimer partner (SHP) which allows a specific conclusion whether a FXR-dependent effect is present. […] We then quantified the mRNA of FXR target genes BSEP and SHP by qRT-PCR.
HepG2 cells were seeded in DMEM high glucose, supplemented with 10% FCS, SP (1 mM), penicillin (100 U/mL) and streptomycin (100 μg/mL) at 37 °C and 5% CO2 in 6-well plates (2 · 10^6 per well). 24 h after seeding, medium was changed to MEM, supplemented with 1% charcoal-stripped FCS, penicillin (100 U/mL), streptomycin (100 μg/mL) and L-glutamine (2 mM). After additional 24 h, medium was changed again to MEM, now additionally containing 0.1% DMSO and the respective test compounds or 0.1% DMSO alone as untreated control. Cells were incubated with the test compounds for 6 h, harvested, washed with cold phosphate buffered saline (PBS) and then directly used for RNA extraction. […]
FXR target gene expression was evaluated by quantitative PCR analysis with a StepOnePlusTM System (Life Technologies) using PowerSYBRGreen (Life Technologies; 12.5 μL per well) and the following primers[17] […] The expression was quantified by the comparative ΔΔCt method.

In the case of `O=C(O)Cc1ccccc1Nc1c(Cl)cccc1Cl` [diclofenac, diclofenac sodium], the “antagonistic effect on BSEP expression” value is “did not observe any antagonistic effect”.
